Chains of the proteins cited; added tags and fusions are not shown.
UniProt P23977, whole entry: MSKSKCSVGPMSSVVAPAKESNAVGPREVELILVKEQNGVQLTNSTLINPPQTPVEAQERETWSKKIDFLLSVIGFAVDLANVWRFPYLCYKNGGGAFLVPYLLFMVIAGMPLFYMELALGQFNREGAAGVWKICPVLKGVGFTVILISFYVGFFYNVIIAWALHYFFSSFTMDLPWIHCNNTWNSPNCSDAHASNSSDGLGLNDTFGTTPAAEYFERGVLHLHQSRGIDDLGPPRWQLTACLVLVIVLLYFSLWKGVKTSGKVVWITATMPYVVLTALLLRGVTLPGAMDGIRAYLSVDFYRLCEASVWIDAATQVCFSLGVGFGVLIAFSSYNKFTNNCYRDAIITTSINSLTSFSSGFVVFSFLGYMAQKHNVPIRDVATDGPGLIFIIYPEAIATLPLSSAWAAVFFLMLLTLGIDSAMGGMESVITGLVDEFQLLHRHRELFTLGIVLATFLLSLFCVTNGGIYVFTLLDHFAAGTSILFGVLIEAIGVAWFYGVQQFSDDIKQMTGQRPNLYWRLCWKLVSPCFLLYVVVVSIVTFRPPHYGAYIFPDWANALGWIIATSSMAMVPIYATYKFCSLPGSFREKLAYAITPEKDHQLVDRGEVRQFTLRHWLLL

In US7714023B2 (dated 2010):

Target: DA transporter (Rattus norvegicus, UniProt P23977)
Assay: DA transporter binding, rat striatum, [3H]GBR12935
Details: Transporter and Muscarinic Receptor Binding IC50 DA, Table 2, ten concentrations

- IC50: 84.4 µM
SMILES: CN(C)CCCC1(c2ccc(F)cc2)OCc2cc(C#N)ccc21 (racemic) [reference compound]
